The numbers were not newly measured in patent US8410049B2, “Methods and kits for preventing hypoglycemia” (Cebix, priority 2009, dated 2013), which cites them from elsewhere.

The data set deals with type 2 diabetes patients. The conditions noted are these: type 2 diabetes patients starting insulin therapy, over 4-8 months; cited from earlier work.

With insulin, the Weight gain was 2 to 4 kg.
